Values quoted from earlier work in patent US7976847B2, “Controlled release CGRP delivery composition for cardiovascular and renal indications” (VasoGenix Pharmaceuticals, Inc., priority 2004, dated 2011).
“And” between values parts separate entries of the source, which are not always exact repeats. Identical values can stand only once. Like-named read-outs stand apart in the source and are kept apart here.

Key:
[1] = IV infusion 10 or 20 minutes at 0.8, 3.2, or 16 ng/kg/min
[2] = 600 ng/min
[3] = 8 ng/kg/min IV infusion for 8 hours
[4] = IV dose of 560 ng/min (0.008 μg/kg/min)

Calcitonin gene-related peptide [CGRP]
cardiac output [1]: increase in cardiac output | systemic vascular resistance [1]: decreased systemic vascular resistance | tachycardia [1]: no tachycardia observed | patients in whom infusion was discontinued after 28 hours due to nausea, diarrhea, and/or severe facial flushing ([2]; 48-hour continuous IV infusion): 3 out of the 6 | hemodynamic functions such as left ventricular function ([2]; pulsed therapy): improve hemodynamic functions | tolerability ([2]; pulsed therapy, 2-8 hour infusions for two consecutive days): well tolerated | cardiac output [3]: increased cardiac output | pulmonary and systemic arterial pressure [3]: decreased pulmonary and systemic arterial pressure | time after stopping CGRP infusion until hemodynamic effects were lost [3]: ≤ 30 min | vascular resistance [3]: decreased vascular resistance | renal blood flow and glomerular filtration ([3]; during treatment): increased | peak plasma levels of CGRP [4]: 157 ± 26 pg/mL | time in which peak plasma levels are obtained [4]: ≤ 60 min | steady state plasma level found to produce beneficial hemodynamic responses (corresponds to IV dose of 560 ng/min (0.008 μg/kg/min)): 157 ± 26 µg/mL | duration of IV administration before unwanted side effects set in (intravenous doses giving the effective plasma levels): 12 to 24 h | effective circulating plasma levels of CGRP (intravenous infusions, Stage C and D HF patients (Anand et al. 1991, Shekhar et al. 1991)): 157 ± 26 pg/mL and 186 ± 127 pg/mL
